Patent publication US5852014A, “Condensed indole derivatives as 5HT4 -receptor antagonists” (SmithKline Beecham p.l.c., priority 1992, dated 1998)

By UniProt entry, the sequences of proteins in these tests, tags left out. Where a name states a change or a piece, a line headed by the entry shows the natural chain unless it says otherwise.
UniProt Q62758: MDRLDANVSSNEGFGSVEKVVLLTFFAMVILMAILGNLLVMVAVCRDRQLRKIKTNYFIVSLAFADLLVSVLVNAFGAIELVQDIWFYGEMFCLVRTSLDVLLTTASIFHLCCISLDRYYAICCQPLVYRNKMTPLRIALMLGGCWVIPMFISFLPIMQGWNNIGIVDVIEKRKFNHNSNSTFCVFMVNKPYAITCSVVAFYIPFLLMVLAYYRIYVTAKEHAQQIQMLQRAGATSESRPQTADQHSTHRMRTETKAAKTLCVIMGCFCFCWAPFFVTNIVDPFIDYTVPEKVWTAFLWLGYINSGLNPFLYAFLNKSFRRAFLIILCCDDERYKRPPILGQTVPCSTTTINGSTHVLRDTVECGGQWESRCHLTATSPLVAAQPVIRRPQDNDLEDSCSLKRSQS

Columns and labels:
[1] = target: T1, 5-HT4 receptor (Rattus norvegicus, UniProt Q62758); assay: Rat oesophagus: relaxation of carbachol-contracted tunica muscularis mucosae; details: n=18
T1 construct: The inner smooth muscle tube of the muscularis mucosae is isolated; from tissue; host or cells: rat oesophageal tunica muscularis mucosae
Text: Rat oesophageal tunica muscularis mucosae is set up according to Baxter et. al. Naunyn-Schmiedeberg's Arch. Pharmacol., 343, 439-446 (1991). […] In contrast to the guinea-pig colon model, where the 5-HT4 receptor is neuronally-located, the receptor here is located on the smooth muscle.

[2] = system: 5-HT4 receptor over the other receptors tested
[3] = system: anxiolytic activity; assay: Social interaction test in rats; type: in vivo, rat; details: vs chlordiazepoxide 5 mg.kg^-1 po
Description: IN VIVO TESTING FOR ANXIOLYTIC ACTIVITY
Social Interaction Test in Rats
Rats (male, Sprague Dawleys, Charles River, 250-300 g) are housed in groups of eight in a holding room for 5 days. They are then housed singly in a room adjacent to the experimental room for 4 days prior to the experimental day. On the experimental day rats are administered vehicle, test compound or a benzodiazepine anxiolytic, chlordiazepoxide, p.o. in pairs (n=8-16), at 15 minute intervals beginning at 10.00 a.m. […] The box is made of white perspex 54 cm×37 cm×26 cm with a transparent perspex front side and no lid. The floor is divided up into 24 squares and the box is brightly lit (115 lux). Active social interactive behaviours (grooming, sniffing, climbing over or under, following, biting, mounting and boxing) are scored blind for the next 15 min by remote video monitoring to give total interaction scores. The number of squares crossed by each rat is also scored and summed. After the end of each test the box is carefully wiped.

Row | SMILES | pEC50 (relaxation) [1] | selectivity for the 5-HT4 receptor over the other receptors tested [2] | magnitude of effect relative to chlordiazepoxide [3]
1 | NCCc1c[nH]c2ccc(O)cc12 [5-HT, 5-hydroxytryptamine, reference compound] | 8.1±0.03 | – | –
2 | CCCCN1CCC(CNC(=O)c2c3n(c4ccccc24)CCCO3)CC1 [SB-207266-A, N-[(1-^n Butyl-4-piperidyl)methyl]-3,4-dihydro-2 H-[1,3]oxazino[3,2-a]indole-10-Carboxamide] | – | several orders of magnitude | somewhat smaller than that of the positive control chlordiazepoxide (CDP; 5 mg.kg^-1 po) but not significantly so
